Patent US7767822B2, “Water-soluble tetrazolium salts” (Bayer Healthcare LLC, priority 2005, dated 2010)
Where two headings read alike, the source gives them in different places.

Test: Solubility of tetrazolium salts in 0.2M phosphate buffer
Assay type: physicochemical

5-Benzo[1,3 dioxol-5-yl]-3-[2-(3-trimethylammonium) propoxy-phenyl]-2(benzothiazol-2-yl)-2 H-tetrazolium bromo nitrite salt [Example 4]
Solubilility: 167 mM

5-Benzo[1,3 dioxol-5-yl]-3-[2-(3-trimethylammonium) propoxy-phenyl]-2-(6-methoxynapthylthiazol-2-yl)-2 H-tetrazolium bromo nitrite salt [Example 5]
Solubilility: 5 mM

5-[4-(3-trimethylammonium)propoxy-3-methoxy-phenyl]-3-[2-(3-trimethylammonium) propoxy-phenyl]-2-(6-bromo-benzothiazol-2-yl)-2H-tetrazolium dibromo nitrite salt [Example 8]
Solubilility (0.2M phosphate buffer, pH ~7.5, room temperature): 290 mM
